## Antibody variant affinities, Ab-91 heavy chain, assay 2

Antigen: PDVDLGDISGINAS, a 14-residue peptide of the SARS-CoV-2 spike HR2 region.

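The starting antibody came from a phage panning campaign against this peptide. The library (AAYL51) carries one to three amino acid substitutions per variant, with no insertions or deletions. The scFvs were displayed on barcoded MATa yeast, the peptide on MATalpha yeast. Mating (16 h, 30 °C) was followed by selection of diploids and sequencing of their barcodes. Scores were corrected for input abundance and mapped to Kd with protein pairs of known affinity run in the same pool. The assay was run in three technical replicates.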

Each scFv is VL, a 15-residue (Gly4Ser)3 linker, VH, as in the parent Ab-91, and differs from it in the CDRs of the heavy chain only.
VL: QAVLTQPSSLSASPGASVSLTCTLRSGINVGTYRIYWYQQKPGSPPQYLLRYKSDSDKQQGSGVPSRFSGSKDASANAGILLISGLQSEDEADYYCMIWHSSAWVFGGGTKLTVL
VH: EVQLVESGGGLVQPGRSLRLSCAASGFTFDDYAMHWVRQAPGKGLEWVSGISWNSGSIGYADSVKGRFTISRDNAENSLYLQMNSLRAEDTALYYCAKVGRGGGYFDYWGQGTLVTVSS

The parent's heavy chain CDRs are GFTFDDYAMH, GISWNSGSIGYADSVK, VGRGGGYFDY; each variant's own CDRs replace them letter for letter.
Affinities are written as log10 Kd with Kd in nM; a lower number is a better binder.
A mean of the replicates is given; it leaves out those without a signal.
"ND" means that the variant was in the library but no mating with the target was seen in that replicate; the authors take this as a sign of poor binding, and no number exists.
Background: pairings of library AAYL51 with three empty control strains gave a value in 21% of cases (median 4.54, 5th percentile 3.26). Values in that range, when seen in few replicates, are hard to tell from nonspecific mating.

| replicates, log10 nM | log10 Kd (nM), mean | CDR-H1 | CDR-H2 | CDR-H3 |
|---|---|---|---|---|
| 5.33 5.16 ND | 5.25 | GFTFDDYAMH | GISWNSGSIGYADSVG | VGRGGPYFDY |
| 6.45 ND 4.50 | 5.47 | GFTFDDYAMW | GPSWNSGSIGYADSVS | VGRGGGYFDY |
| ND ND ND | ND | GFTFDDYAYH | GISWNSGSIGYADSVM | VWRGGGYFDY |
| 4.83 3.95 ND | 4.39 | GFTFDPYAMH | GTSWNSGSIGYADSVK | VGRGGGYFDA |
| ND ND ND | ND | GFTFDDRAMH | GIMWNSGSIGYADSVK | VGRVGGYFDY |
| ND ND ND | ND | GFTFDDYASH | GDSWNSGSVGYADSVK | VGRGGGYFDY |
| ND ND ND | ND | GFTFDMYAMM | GISWNSGSIGYADSVK | VGRGGGYFDY |
| ND ND ND | ND | GFTFDDYAMH | GISWNSGSIGYADSPG | VGMGGGYFDY |
| ND ND ND | ND | GFTFDDYAMM | GISWNSGSIGYADSMK | VGRGGGYFDY |
| 4.50 6.14 ND | 5.32 | PFTFDDYAMH | GISWHSGSIGRADSVK | VGRGGGYFDY |
| ND ND 5.01 | 5.01 | GFTFDDYAMH | GTSWRSGSIGYVDSVK | VGRGGGYFDY |
| ND 4.26 5.22 | 4.74 | GFTFDDYACH | GISWNSSSIGAADSVK | VGRGGGYFDY |
| 4.82 ND ND | 4.82 | DFVFDDYAMH | GISWNSGSIGYADSVK | VGRGGGSFDY |
| 1.60 1.52 1.11 | 1.41 | GFTFDDYAMH | GISWNSGSDGYADSVT | VGRGGGYLDY |
| ND ND ND | ND | NFTFDDYAMM | GISWNSGSIGYADSHK | VGRGGGYFDY |
| ND ND ND | ND | GFTFDDYAMH | CISWNSGSTGYACSVK | VGRGGGYFDY |
| ND 5.19 ND | 5.19 | GHTFDDYAMH | GISWNSGSIGYADSVK | PGRGGGGFDY |
| ND ND ND | ND | GFTFDDYADH | GISWNSGSIGYADSVK | MGRGGNYFDY |
| 4.09 3.84 5.48 | 4.47 | GFTFDDYAMH | GISWQTGSIGYADSVK | VGRGGGCFDY |
| ND ND ND | ND | GFTFDDYAMH | GISWNSGSIGYADSRR | VGRGGGYFDT |
| ND ND ND | ND | GFYFDDYAMA | GISWNSGSIWYADSVK | VGRGGGYFDY |
| 4.60 ND ND | 4.60 | GFTFDDYAMH | GKSWNSGSIGYAWSVK | VGRGGGYFDY |
| ND ND ND | ND | GFTFDDYAMH | GISWNSGSICYMDSVK | VGRGGGYFDK |
| 5.02 6.05 ND | 5.54 | GFTFDDYAMH | GISWRSGSGGYAKSVK | VGRGGGYFDY |
| ND ND 2.95 | 2.95 | QFTFDDYPMH | GISWNSGSIGYADSVK | VGRGGGYFKY |
| ND ND ND | ND | GRTFDDWAMC | GISWNSGSIGYADSVK | VGRGGGYFDY |
| ND ND ND | ND | GFEFDDYAMY | GISWNSGSIGYADSVK | VGRGAGYFDY |
| ND ND ND | ND | GFTFDDYAWH | GESWNSGSIGYANSVK | VGRGGGYFDY |
| 3.02 3.22 2.14 | 2.79 | GFDFDDYAMH | GISWNSGSVGYADSHK | VGRGGGYFDY |
| 4.63 5.06 5.89 | 5.19 | GFTFDDACMH | GISWNSYSIGYADSVK | VGRGGGYFDY |
| ND ND 4.29 | 4.29 | GFTFDCYAMY | GISWNSGSIGYADSVK | LGRGGGYFDY |
| 4.10 ND 3.55 | 3.83 | GFTFDDYAMH | PISWNSGEIGYADSVK | VGGGGGYFDY |
| 1.33 1.31 0.92 | 1.19 | GHTRDNYAMH | GISWNSGSIGYADSVK | VGRGGGYFDY |
| ND 4.53 4.82 | 4.67 | GFTFDDYAMH | GISWNSGSIGGADSVK | VGRHGGAFDY |
| ND ND ND | ND | GFTFDDYCMH | GISWNSGSLGYAASVK | VGRGGGYFDY |
| 3.35 ND 4.10 | 3.72 | GFTFDDYAMR | GISMNSGSIWYADSVK | VGRGGGYFDY |
| 4.97 4.75 4.39 | 4.70 | GFTFDDKAMH | GIMWNSGSIGYADSVK | VGRGGGYFDY |
| ND ND ND | ND | GFTFDDYAVH | GISWNSGSIGYADSVK | VGRPGGYFWY |
| 1.35 1.15 0.92 | 1.14 | GFMFDDYGMH | GISWNSGSIGYADSVK | VGRGGGYMDY |
| 5.57 ND ND | 5.57 | GFTFDDYAMH | GISWNSGSIGGADSVK | VGRGGYYFDN |
| ND ND ND | ND | GFTFDDYAMH | GISWNSGSIGYADSVC | KGRRGGYFDY |
| ND ND ND | ND | LFTFDDSAMH | GISWNSGSIGYADSVK | VGRGGGYPDY |
| ND 1.21 ND | 1.21 | GFRFQDYAMH | GISWNSGSIGYADSVK | VWRGGGYFDY |

For reference, 3 entries of the list once more:

| CDR-H1 | CDR-H2 | CDR-H3 | replicates, log10 nM | log10 Kd (nM), mean |
|---|---|---|---|---|
| GFTFDDYAMM | GISWNSGSIGYADSMK | VGRGGGYFDY | ND ND ND | ND |
| GFRFQDYAMH | GISWNSGSIGYADSVK | VWRGGGYFDY | ND 1.21 ND | 1.21 |
| PFTFDDYAMH | GISWHSGSIGRADSVK | VGRGGGYFDY | 4.50 6.14 ND | 5.32 |

Data: MIT Lincoln Laboratory AlphaSeq set, Engelhart et al. 2022, doi:10.1038/s41597-022-01779-4, as distributed in FLAb.